# The supplement of paper PMC12350171
# For some assays here: This list holds what a sample rich in hits left over. The list shows a part of the results, in another mix than the full data.
# Columns and labels:
# Details in all cases: 20 µM
# [1] = system: Salmonella enterica typhimurium; test: growth AUC normalised to DMSO control (fraction of control); higher = less growth inhibition, active = hit call of the paper
# Shigella flexneri = test: as above
# P. vulgatus RND KO = test: growth AUC normalised to DMSO control (median) (fraction of control); higher = less growth inhibition, active = hit call of the paper
# In short: (§1)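 For normalised area under the curve, growth curves were truncated at entry into stationary phase, integrated by the trapezoidal rule and divided against vehicle wells on the same plate. The curves came from strains passaged twice overnight without oxygen and then grown in mGAM in 96-well plates at a starting OD578 of 0.01. Each well held an approved-drug library compound at 20 μM with 1% DMSO, and OD578 was read hourly for 24 h in an anaerobic incubator. Values are medians of three biological replicates.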
# P. vulgatus WT = test: as above
# In short: as §1
# [2] = system: S. enterica typhimurium WT; test: as above
# In short: as §1
# 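Throughout, for growth AUC normalised to DMSO control (median): active when median AUC fell below 0.1.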
smiles,measurement,setting,value
COc1cc(Br)c(C[N+]2(CCOCCC3CCC4CC3C4(C)C)CCOCC2)cc1OC (stereo not given) [Pinaverium bromide],growth AUC normalised to DMSO control,[1],inactive: 1.03
same,growth AUC normalised to DMSO control,Shigella flexneri,inactive: 1.06
same,growth AUC normalised to DMSO control,P. vulgatus RND KO,active: 0.00592
same,growth AUC normalised to DMSO control,P. vulgatus WT,active: 0.0084
same,growth AUC normalised to DMSO control,[2],inactive: 0.996
